Laboratory results as given in ChEMBL document CHEMBL1145111, “Synthesis and biological characterization of 1-methyl-1,2,5,6-tetrahydropyridyl-1,2,5-thiadiazole derivatives as muscarinic agonists for the treatment of neurological disorders” (J Med Chem, 2003).

By UniProt entry, the sequences of proteins in these tests, tags left out.
UniProt P08172, whole entry: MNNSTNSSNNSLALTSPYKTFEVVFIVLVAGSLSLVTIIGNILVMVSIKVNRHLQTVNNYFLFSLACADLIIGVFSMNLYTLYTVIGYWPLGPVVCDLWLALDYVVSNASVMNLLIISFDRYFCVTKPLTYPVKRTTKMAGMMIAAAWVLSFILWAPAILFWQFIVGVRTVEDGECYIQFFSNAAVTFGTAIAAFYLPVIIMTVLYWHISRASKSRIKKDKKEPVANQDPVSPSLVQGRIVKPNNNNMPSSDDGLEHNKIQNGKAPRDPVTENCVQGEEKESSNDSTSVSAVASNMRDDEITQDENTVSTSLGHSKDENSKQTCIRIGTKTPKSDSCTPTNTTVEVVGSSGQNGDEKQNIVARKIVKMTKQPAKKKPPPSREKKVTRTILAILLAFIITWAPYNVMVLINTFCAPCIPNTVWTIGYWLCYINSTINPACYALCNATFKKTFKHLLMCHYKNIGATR

Assays:
[1] = molecular target: T1, Muscarinic acetylcholine receptor M2 (Homo sapiens, UniProt P08172); assay: Inhibitory activity was evaluated against Muscarinic acetylcholine receptor M2 expressed in A9 L cells; format: cell-based, A9L
[2] = molecular target: T1, Muscarinic acetylcholine receptor M2; assay: Compound was tested for binding inhibition of [3H](R)-QNB to Muscarinic acetylcholine receptor M2 expressed in A9 L cells; format: cell-based, A9L
How it was run: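 Membrane homogenates from transfected A9 L cells expressing the human subtype were incubated with 0.1 nM [³H]-(R)-QNB. Buffer was 25 mM sodium phosphate, pH 7.4, with 5 mM MgCl2. Test ligand covered 14 points from 0.01 nM to 3 mM, 2 h at room temperature. Nonspecific binding was taken with 1000-fold excess unlabeled (R)-QNB. Results are given as pKi, mean ± SEM, in triplicate.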

Which results are given for CCCCCCOc1nsnc1C1=CCCN(C)C1 [XANOMELINE]?
IC50 [1]: 12.6 nM; Ki [2]: 50.1 nM
